According to patent US6506739B1, “Bis-(N,N'-bis-(2-haloethyl)amino)phosphoramidates as antitumor agents” (dated 2003):

What was measured:
[1] = test system: RPMI 8322 human melanoma cells; assay: Cell viability (CellTiter 96 dye conversion); details: read-out: μM to 50% cell viability, 4 days with compound, 1% DMSO, triplicate
Description: RPMI 8322 human melanoma cells (ATCC) were grown at 37 C in MEM supplemented with 10% fetal bovine serum, 1% L-glutamate, and 0.1% gentamicin. The cells were plated at a density of 2×10^6 per well in 96-well microtiter plates. Twenty-four hours later, the medium was replaced with the same medium to which test compounds at final concentrations of 1 μM to 10 mM, and 1% DMSO had been added. The cells were grown in the presence of the compound for an additional 4 days. Each concentration of the compound was tested in triplicate. Cell viability was measured using a standard assay that monitors metabolic conversion of a dye (CellTiter 96™, Promega).

[2] = test system: MX-1 human mammary tumor; assay: Anti-tumor effects in mice, MX-1 xenograft; details: nude mice with MX-1 tumor
Source text: Female, 7 weeks old NCr-tu athymic nude mice were purchased from Charles River Laboratories (Raleigh, N.C.) and acclimated in the laboratories one week prior to experimentation. The animals were housed in microisolator cages, at five per cage, in a 12-hour light/dark cycle. The animals received filtered sterilized water and sterile rodent food d lieitum. Animals were observed daily, and clinical signs such as tumor shrinkage were noted.
Tumor Model. Thirty- to forty mg fragments of MX-1 human mammary tumor were implanted subcutaneously in mice near the right axillary area, using a 12-gauge trocar needle and allowed to grow. Tumors were allowed to reach 75-196 mg in weight (75-196 mm^3 mm in size) before the start of treatment.
Drug Treatment. Compound 3 was formulated fresh daily at a concentration of 10 mg/mL in 5% ethanol/14% propylene glycol/50% PBS. Compound 3 was administered intraperitoneally for five consecutive days at dosages of 55, 75, and 100 mg/kg/dose. Dosing solutions were administered to mice within 4 hours of formulation. Compounds were administered by exact body weight, with the injection volume being 0.1 mL/10 g body weight.
Tumor measurements. The tumors were measured, and the animals were weighed twice weekly, starting with the first day of treatment. Tumor volume was determined by caliper measurements (mm) and using the formula for an ellipsoid L×W^2/2=Volume, where L and W refer to the larger and smaller dimensions collected at each measurement. This formula was also used to calculate tumor weight, assuming a unit density (1 mm^3=1 mg).
Study duration was 28 days after tumor implantation. Any animal whose tumor reached 4 g in weight was sacrificed prior to study termination.

[3] = 55 mg/kg/dose intraperitoneally for five consecutive days
[4] = 75 mg/kg/dose intraperitoneally for five consecutive days
[5] = 100 mg/kg/dose intraperitoneally for five consecutive days

Row | Compound | IC50 [1] [µM] | Tumor Regression Partial Regression [2, 3] | Tumor-Free [2, 3] | Tumor Regression Partial Regression [2, 4] | Tumor-Free [2, 4] | Tumor Regression Partial Regression [2, 5] | Tumor-Free [2, 5]
1 | NCCOP(=O)(N(CCCl)CCCl)N(CCCl)CCCl | > 500 |  |  |  |  |  | 
2 | O=P(OCCO)(N(CCCl)CCCl)N(CCCl)CCCl |  | 0 | 0/8 | 0 | 0/8 | 0 | 0/8
